What was measured:
VMAT2 [1] = molecular target: T1, VMAT2 (Mus musculus, UniProt Q8BRU6); test: FFN206 uptake upregulation assay (18-h treatment, washout) in HEK-VMAT2 cells; type: cell-based; parameters: The full-length mouse and human SLC18A2 cDNAs encoding VMAT2 were cloned into pcDNA3.1 vectors; expressed in transfected cells; conditions: for Emax concentration: 18 h treatment, concentration giving Emax
VMAT2 [2] = molecular target: T1, VMAT2; test: FFN206 uptake inhibition assay (30-min treatment) in HEK-VMAT2 cells

Effect on VMAT2 activity, acute (VMAT2 [2]; 10 μM, 30 min, vs vehicle) | Hill Slope (inhibition) (VMAT2 [2]; 30 min inhibition curve fit) | Imax, % vehicle (mean ± SEM) (VMAT2 [2]; VMAT2 activity at 100 μM compound, 30 min, normalized to vehicle (100%)) | Emax, % vehicle (mean ± SEM) (VMAT2 [1]; 18 h treatment followed by washout, at Emax concentration) | Hill slope (upregulation) (VMAT2 [1]; 18 h upregulation curve fit) | SMILES | Emax concentration (VMAT2 [1])
 |  |  |  |  | CN(C)CCCN1c2ccccc2CCc2ccccc21 [IMI, Imipramine] | 100 µM
significantly inhibited VMAT2 activity | –1.002 | 7.73 ± 1.23 % vehicle | 179.83 ± 18.89 % vehicle | 4.376 | Clc1ccc2c(c1)C(N1CCNCC1)=Nc1ccccc1O2 [AMO, Amoxapine] | 31.62 µM
